Test results: ChEMBL document CHEMBL5728058, “3-(carboxymethyl)-8-amino-2-oxo-1,3-diaza-spiro-[4.5]-decane derivatives” (2020)

target: Mu-type opioid receptor (Homo sapiens, UniProt P35372); assay: Human Mu-Opioid Peptide (hMOP) Receptor Binding Assay: The hMOP receptor binding assay was performed as homogeneous SPA-assay (scintillation proximity assay) using the assay buffer 50 mM TRIS-HCl (pH 7.4) supplemented with 0.052 mg/ml bovine serum albumin (Sigma-Aldrich Co., St. Louis, Mo.). The final assay volume (250 μl/well) included 1 nM of [N-allyl-2,3-3H]naloxone as ligand (PerkinElmer Life

Q: CN(C)[C@]1(c2ccccc2)CC[C@]2(CC1)CN(CC(=O)NCCO)C(=O)N2CC1CCC1 was tested. Which Ki did it give?
A: 47 nM

Q: With CNC(=O)CN1C[C@]2(CC[C@](c3ccccc3)(N(C)C)CC2)N(CC2CCC2)C1=O as the molecule, how does the Ki read?
A: 24.8 nM

Q: With CN(C)[C@]1(c2ccccc2)CC[C@]2(CC1)CN(CC(=O)Nc1ccncn1)C(=O)N2CC1CCC1 as the molecule, how does the Ki read?
A: 36.5 nM

Q: With CN(C)[C@]1(c2ccccc2)CC[C@]2(CC1)CN(CC(=O)N1C[C@@H](O)[C@@H](O)C1)C(=O)N2CC1CCC1 as the molecule, how does the Ki read?
A: 40.5 nM

Q: How did the Ki turn out when CN(C)[C@]1(c2ccccc2)CC[C@]2(CC1)CN(CC(=O)Nc1ccc(S(C)(=O)=O)cn1)C(=O)N2CC1CCC1 was run?
A: 40 nM

Q: COc1ccc(NC(=O)CN2C[C@]3(CC[C@](c4ccccc4)(N(C)C)CC3)N(CC3CCC3)C2=O)nc1 was tested. Which Ki did it give?
A: 36.5 nM
